Measurements as given in ChEMBL document CHEMBL1828586 (J Med Chem, 2011).

Assay: Half life in human liver microsomes
Assay type: ADME, Microsome

| half-life [min] | Compound |
| --- | --- |
| 55 | COc1cc(/C(=N/N)c2csc(-c3ccccc3)n2)cc(OC)c1OC |
| 55 | COc1cc(/C(=N\N)c2csc(-c3ccccc3)n2)cc(OC)c1OC |
